The chains behind the UniProt entries cited, without tags or fusion partners.
UniProt P25095, whole entry: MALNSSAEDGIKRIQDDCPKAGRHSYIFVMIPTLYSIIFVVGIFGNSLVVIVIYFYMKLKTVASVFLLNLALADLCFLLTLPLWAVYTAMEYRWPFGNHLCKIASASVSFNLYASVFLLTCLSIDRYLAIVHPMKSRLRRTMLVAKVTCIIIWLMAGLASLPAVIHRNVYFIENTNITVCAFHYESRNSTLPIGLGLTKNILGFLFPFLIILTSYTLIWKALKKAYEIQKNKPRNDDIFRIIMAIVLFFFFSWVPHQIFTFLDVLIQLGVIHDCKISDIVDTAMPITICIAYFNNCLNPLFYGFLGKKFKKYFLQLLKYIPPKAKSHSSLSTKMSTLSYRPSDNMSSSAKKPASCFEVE

According to patent publication US20240025949A1, “Beta-Arrestin Effectors and Compositions and Methods of Use Thereof” (Trevena, Inc., priority 2021, published 2024):

Tests used:
Type in all cases: cell-based
human AT1R [1] = molecular target: T1, human AT1R (Homo sapiens, UniProt P30556); experiment: PathHunter β-arrestin-2 recruitment assay, human AT1R; conditions: PathHunter β-arrestin HEK293 cells
T1 construct: ProLink (β-galactosidase enzyme-donor fragment, from the pCMV-ProLink vector)

rat AT1aR [2] = molecular target: T2, rat AT1aR (Rattus norvegicus, UniProt P25095); experiment: PathHunter β-arrestin-2 recruitment assay, rat AT1aR; conditions: PathHunter β-arrestin HEK293 cells
T2 construct: ProLink (β-galactosidase enzyme-donor fragment, from the pCMV-ProLink vector)

human AT1R [3] = molecular target: T1, human AT1R; experiment: IP1 accumulation assay (IP-One Tb), human AT1R; conditions: cells expressing human AT1R, inactive = EC50 greater than 10 uM
rat AT1aR [4] = molecular target: T2, rat AT1aR; experiment: IP1 accumulation assay (IP-One Tb), rat AT1aR; conditions: cells expressing rat AT1aR; for rat AT1aR IP One EC50 (M): inactive = EC50 greater than 10 uM

CNCC(=O)N[C@@H](CCCNC(=N)N)C(=O)N[C@H](C(=O)N[C@@H](Cc1ccc(O)cc1)C(=O)N[C@@H](Cc1c[nH]cn1)C(=O)N[C@@H](Cc1c[nH]cn1)C(=O)N1CCC[C@H]1C(=O)N[C@@H](C)C(=O)O)C(C)C [compound 22]
human AT1R b-arrestin2 Max (%) (human AT1R [1]): 54.5% | rat AT1aR b-arrestin2 Max (%) (rat AT1aR [2]): 74.3% | human AT1R IP One EC50 (M) (human AT1R [3]): inactive | rat AT1aR IP One Max (%) (rat AT1aR [4]): 5.2%

CNCC(=O)N[C@@H](CCCNC(=N)N)C(=O)N[C@H](C(=O)N[C@@H](Cc1ccc(O)cc1)C(=O)N[C@@H](CCCCN)C(=O)N[C@@H](Cc1c[nH]cn1)C(=O)N1CCC[C@H]1C(=O)N[C@@H](C)C(=O)O)C(C)C [compound 23]
human AT1R b-arrestin2 Max (%) (human AT1R [1]): 61.2% | rat AT1aR b-arrestin2 Max (%) (rat AT1aR [2]): 84.9% | human AT1R IP One EC50 (M) (human AT1R [3]): inactive | rat AT1aR IP One Max (%) (rat AT1aR [4]): 10.3%

CNCC(=O)N[C@@H](CCCNC(=N)N)C(=O)N[C@H](C(=O)N[C@@H](Cc1ccc(O)cc1)C(=O)N[C@@H](CCCNC(=N)N)C(=O)N[C@@H](Cc1c[nH]cn1)C(=O)N1CCC[C@H]1C(=O)N[C@@H](C)C(=O)O)C(C)C [compound 24]
human AT1R b-arrestin2 Max (%) (human AT1R [1]): 61.3% | rat AT1aR b-arrestin2 Max (%) (rat AT1aR [2]): 74.1% | human AT1R IP One EC50 (M) (human AT1R [3]): inactive | rat AT1aR IP One Max (%) (rat AT1aR [4]): 15.1%

CNCC(=O)N[C@@H](CCCNC(=N)N)C(=O)N[C@H](C(=O)N[C@@H](Cc1ccc(O)cc1)C(=O)N[C@@H](Cc1ccc(O)cc1)C(=O)N[C@@H](Cc1c[nH]cn1)C(=O)N1CCC[C@H]1C(N)=O)C(C)C [compound 26]
human AT1R b-arrestin2 Max (%) (human AT1R [1]): 51.9% | rat AT1aR b-arrestin2 Max (%) (rat AT1aR [2]): 77.3% | human AT1R IP One EC50 (M) (human AT1R [3]): inactive | rat AT1aR IP One EC50 (M) (rat AT1aR [4]): Inactive

CC[C@H](C)[C@H](NC(=O)[C@H](Cc1ccc(O)cc1)NC(=O)[C@@H](NC(=O)[C@H](CCCNC(=N)N)NC(=O)CNC)C(C)C)C(=O)N[C@@H](Cc1c[nH]cn1)C(=O)N1CCC[C@H]1C(=O)N[C@H](C)C(=O)O [compound 27]
human AT1R b-arrestin2 Max (%) (human AT1R [1]): 58.1% | rat AT1aR b-arrestin2 Max (%) (rat AT1aR [2]): 84.2% | human AT1R IP One EC50 (M) (human AT1R [3]): inactive | rat AT1aR IP One EC50 (M) (rat AT1aR [4]): Inactive

CNCC(=O)N[C@@H](CCCNC(=N)N)C(=O)N[C@H](C(=O)N[C@@H](Cc1ccc(O)cc1)C(=O)N[C@@H](Cc1ccc(O)cc1)C(=O)N[C@@H](Cc1c[nH]cn1)C(=O)N1CCC[C@H]1C(=O)N[C@H](Cc1ccccc1)C(=O)O)C(C)C [compound 28]
human AT1R b-arrestin2 Max (%) (human AT1R [1]): 82.9% | rat AT1aR b-arrestin2 Max (%) (rat AT1aR [2]): 91.4% | human AT1R IP One EC50 (M) (human AT1R [3]): inactive | rat AT1aR IP One Max (%) (rat AT1aR [4]): 24.6%

CC[C@H](C)[C@H](NC(=O)[C@H](Cc1ccc(OC)cc1)NC(=O)[C@@H](NC(=O)[C@H](CCCNC(=N)N)NC(=O)CNC)C(C)C)C(=O)N[C@@H](Cc1c[nH]cn1)C(=O)N1CCC[C@H]1C(=O)N[C@@H](C)C(=O)O [compound 29]
human AT1R b-arrestin2 Max (%) (human AT1R [1]): 43.3% | rat AT1aR b-arrestin2 Max (%) (rat AT1aR [2]): 64.8% | human AT1R IP One EC50 (M) (human AT1R [3]): inactive | rat AT1aR IP One EC50 (M) (rat AT1aR [4]): Inactive

CNCC(=O)N[C@@H](CCCNC(=N)N)C(=O)N[C@H](C(=O)N[C@@H](Cc1ccc(O)cc1)C(=O)N[C@H](C(=O)N[C@@H](Cc1c[nH]cn1)C(=O)N1CCC[C@H]1C(=O)N[C@@H](C)C(=O)O)[C@@H](C)OC)C(C)C [compound 30]
human AT1R b-arrestin2 Max (%) (human AT1R [1]): 68.2% | rat AT1aR b-arrestin2 Max (%) (rat AT1aR [2]): 80.4% | human AT1R IP One EC50 (M) (human AT1R [3]): inactive | rat AT1aR IP One EC50 (M) (rat AT1aR [4]): Inactive

CC(C)[C@H](NC(=O)[C@H](CCCNC(=N)N)NC(=O)CN(C)C)C(=O)N[C@@H](Cc1ccc(O)cc1)C(=O)N[C@H](C(=O)N[C@@H](Cc1c[nH]cn1)C(=O)N1CCC[C@H]1C(=O)N[C@@H](C)C(=O)O)C(C)C [compound 31]
human AT1R b-arrestin2 Max (%) (human AT1R [1]): 58.1% | rat AT1aR b-arrestin2 Max (%) (rat AT1aR [2]): 75.9% | human AT1R IP One EC50 (M) (human AT1R [3]): inactive | rat AT1aR IP One Max (%) (rat AT1aR [4]): 6.2%

CN[C@@H](C)C(=O)N[C@@H](CCCNC(=N)N)C(=O)N[C@H](C(=O)N[C@@H](Cc1ccc(O)cc1)C(=O)N[C@H](C(=O)N[C@@H](Cc1c[nH]cn1)C(=O)N1CCC[C@H]1C(=O)N[C@@H](C)C(=O)O)C(C)C)C(C)C [compound 33]
human AT1R b-arrestin2 Max (%) (human AT1R [1]): 54.9% | rat AT1aR b-arrestin2 Max (%) (rat AT1aR [2]): 86.9% | human AT1R IP One EC50 (M) (human AT1R [3]): inactive | rat AT1aR IP One EC50 (M) (rat AT1aR [4]): Inactive

CC[C@H](C)[C@H](NC(=O)[C@H](Cc1ccc(O)cc1)NC(=O)[C@@H](NC(=O)[C@H](CCCNC(=N)N)NC(=O)[C@H](C)NC)C(C)C)C(=O)N[C@@H](Cc1c[nH]cn1)C(=O)N1CCC[C@H]1C(=O)N[C@@H](C)C(=O)O [compound 34]
human AT1R b-arrestin2 Max (%) (human AT1R [1]): 53.0% | rat AT1aR b-arrestin2 Max (%) (rat AT1aR [2]): 81.7% | human AT1R IP One EC50 (M) (human AT1R [3]): inactive | rat AT1aR IP One EC50 (M) (rat AT1aR [4]): Inactive
